1 substance from paper PMC3003327 can be followed below.

This experiment has as its target actin filaments (F-actin) of Acanthamoeba castellani cytoplasmic actin (Acanthamoeba castellani). Nature of the experiment: single-filament TIRF capping-rate assay.

“recombinant mouse capping protein α1β2 (MmCP α1β2) (from UniProt P47753;P47757-2) (complex)” gave a fold reduction of kon by VASP in 100 mM KCl of 2.7 fold and a kon with 50 nM VASP of 1.9e+06 M⁻¹ s⁻¹.
